Results published in patent US10280184B2, “Heterocyclic kinase inhibitors” (AbbVie Inc., priority 2014, dated 2019).

The chains behind the UniProt entries cited, without tags or fusion partners. Residues count along the entry.
UniProt Q06187, 393-659 limits assumed: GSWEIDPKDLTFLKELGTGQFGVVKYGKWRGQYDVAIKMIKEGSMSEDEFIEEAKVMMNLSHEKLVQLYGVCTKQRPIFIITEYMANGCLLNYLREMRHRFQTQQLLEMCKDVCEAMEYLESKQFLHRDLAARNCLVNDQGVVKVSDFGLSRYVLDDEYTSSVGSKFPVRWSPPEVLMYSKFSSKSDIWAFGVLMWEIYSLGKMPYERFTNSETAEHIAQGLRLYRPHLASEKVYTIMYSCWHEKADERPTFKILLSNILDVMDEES

Molecular target: BTK (Homo sapiens (Human), UniProt Q06187)
Experiment: In vitro BTK kinase activity measured by trFRET
Assay type: biochemical
Conditions: read-out: Btk enzyme IC50; recombinant human catalytic domain (aa 393-659), 0.01 mM ATP
Protocol: In Vitro BTK Kinase Activity Measured by Time-Resolved Fluorescence Resonance Energy Transfer (trFRET)
The in-house BTK corresponds to recombinant human catalytic domain (aa 393-659), which was expressed in SF9 cells with an N-terminal his tag and purified by immobilized metal affinity chromatography. BTK was mixed with peptide substrate (biotin-TYR1, Sequence: Biotin-(Ahx)-GAEEEIYAAFFA-COOH, 0.4 μM final) at varying inhibitor concentrations in reaction buffer: 50 mM MOPSO pH 6.5, 10 mM MgCl2, 2 mM MnCl2, 2.5 mM DTT, 0.01% BSA, 0.1 mM Na3VO4 and 0.01 mM ATP. After about 60 min incubation at rt, the reaction was quenched by addition of EDTA (final concentration: 100 mM) and developed by addition of detection reagents (final approximate concentrations: 30 mM HEPES pH 7.0, 0.06% BSA, 0.006% Tween-20, 0.24 M KF, 80 ng/mL PT66K (europium labeled anti-phosphotyrosine antibody cat #61T66KLB Cisbio, Bedford, Mass.) and 0.6 μg/mL SAXL (Phycolink streptavidin-allophycocyanin acceptor, cat #PJ25S, Prozyme, San Leandro, Calif.). The developed reaction was incubated in the dark for about 60 min at rt, then read via a time-resolved fluorescence detector (Rubystar, BMG) using a 337 nm laser for excitation and monitoring emission wavelength at 665 nm. […]

Q: With C=CC(=O)N1CCC(c2cc(Nc3cc(N4CCOCC4)ccn3)c3ncnn3c2)C1 (stereo not shown) as the compound, how does the IC50 read?
A: 1 to 50 µM
